## scFv variants of Ab-14 (light chain) against a SARS-CoV-2 spike peptide

Target: peptide PDVDLGDISGINAS, taken from heptad repeat 2 (HR2) of SARS-CoV-2 spike.

The variants keep the heavy chain, the linker and the frameworks of Ab-14 (scFv order VH, a (GGGGS)3 linker, VL).
VH: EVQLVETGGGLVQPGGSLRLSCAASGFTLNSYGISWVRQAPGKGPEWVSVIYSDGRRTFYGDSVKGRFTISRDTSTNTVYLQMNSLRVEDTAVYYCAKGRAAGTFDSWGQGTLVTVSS
VL: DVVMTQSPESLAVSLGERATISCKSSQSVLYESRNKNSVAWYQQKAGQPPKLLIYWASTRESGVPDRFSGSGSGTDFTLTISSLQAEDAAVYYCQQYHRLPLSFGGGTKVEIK

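The parent was found by panning a naive human phage display library on the peptide. The variants were designed computationally from a first round of random CDR variants and then made and measured. Group labels follow the data file (Ctrl: baseline library sampled from a position-specific scoring matrix, with some repeated check sequences; Rand: our label for a block that the file lists under HC and that is probably the random mutants of the ten best first-round binders; En: ensemble of fine-tuned language models; GP: Gaussian process model; HC: hill climbing; Gen: genetic algorithm; Gibbs: Gibbs sampling; a sequence that several methods proposed may carry one label only). The scFvs were displayed on barcoded MATa yeast, the peptide on MATalpha yeast. The frequency of each diploid, read from paired DNA barcodes, reflects how well the two displayed proteins bind. Each replicate has its own calibration line, from reference interactions of the BCL2 family. The assay was run in six technical replicates.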

Each variant is given by its three light chain CDRs, as the data file delimits them; those of the parent are KSSQSVLYESRNKNSVA, WASTRES, QQYHRLPLS.
The read-out is the apparent dissociation constant on a log10 scale (nM): the lower, the stronger.
The mean shown is taken over the replicates in which the pair was detected.
Where no diploid with the target was found in any replicate, the entry reads "not detected": below detection, most likely a poor binder, though not proof of it.

mean, log10 nM | seen in | CDR-L1 | CDR-L2 | CDR-L3 | group
-0.45 | 6 of 6 | KLGQGVLYESRNKNSVA | GASQRES | QQYHRLPLS | GP_HC
not detected | 0 of 6 | KSSQSALYESQNKNSVA | WDSWLNS | QQHHRLPLS | Ctrl
1.01 | 6 of 6 | MMTWGDDHTTGHQNAIA | HAHERAT | QQYALLPLS | En_Gibbs
0.01 | 6 of 6 | KLSSVTGHMSMAKNNVA | EMVTREN | QQYNRLPLS | En_Gen
-0.19 | 6 of 6 | HVSPSVLYESRNKNSVA | NASTRES | QQYHRLPFS | GP_HC
0.41 | 6 of 6 | KLSFGVDYESRNKNSVA | GASTRES | QAYHRLPLS | GP_Gibbs
1.16 | 6 of 6 | KMSQSVEVLSRNKNSVA | NASTREM | QQYHRLPLS | GP_Gibbs
0.45 | 6 of 6 | KYEFSDLNESRNKNSVA | EASTRES | QQYHRLPLS | GP_Gibbs
1.24 | 6 of 6 | KIGGVTNGISRSKNSVA | EQSTRED | QQYDRLPLA | En_HC
-0.25 | 6 of 6 | KLSQSELYESRNSNSVA | NASTRES | QQYHRLPLS | GP_Gen
0.67 | 6 of 6 | SFERGYDGNSLVQNNVA | EGTTLWE | QQYMRLPLA | En_Gibbs
1.55 | 6 of 6 | KIGHGLTTEMRNRNSVA | QTETRVQ | QHYHRLPLS | En_HC
0.70 | 6 of 6 | KVSQSVLYQSNNKNSVA | WASTRES | QQYHRLPLF | Ctrl
not detected | 0 of 6 | KSSQSVLYESRNANSVA | WASNRES | QQFWRLPLS | Ctrl
0.57 | 6 of 6 | MFSQGIMVGWLTRNSVA | NSSTRES | QQYHRLPLS | En_HC
2.45 | 2 of 6 | KSSQSVWYESRNKNSVA | WASTRES | QQYHRLPLN | Ctrl
0.42 | 6 of 6 | KVSWEDLLQSRNWNQVA | EASTRES | QQYHRLPLS | GP_Gibbs
0.71 | 6 of 6 | KISMLYNYANTNKNSIA | EMTTRES | QHYHRLPLS | En_HC
-0.33 | 6 of 6 | KLSQSWLYESRNKNSVA | NASTRLS | QQYHRLPLS | GP_Gen
0.33 | 6 of 6 | NLSGITAHESVKEDNIA | ERSTREQ | QQYNRLPLS | En_Gen
2.35 | 1 of 6 | KISQSTPYEDRNFNSVA | NASYRCS | QQYHRLPLS | GP_Gibbs
0.55 | 6 of 6 | KSSQSVLDESRNKNSVA | YASTRES | QQYHRLPLS | Ctrl
2.21 | 2 of 6 | KVSQSVLYESRNKYSVA | WASTRES | QQYHGLPLS | Ctrl
0.08 | 6 of 6 | KLVPSELYESRQSNSVA | NASLRES | QQYHRLPLS | GP_Gibbs
1.34 | 6 of 6 | TLGMQPTEMRDNKHAVA | DDNQRDR | QSYMRLPLS | En_Gibbs
0.74 | 6 of 6 | KLAMITGLEKVSGNNVA | EMETRER | QQYNRLPLA | En_Gen
0.23 | 6 of 6 | HESPSVDYESRNKNDVA | NASTRES | QQYHRLPLS | Rand
0.74 | 6 of 6 | KVLQSVMYEGRNKNSVA | HASTRED | QQYHRLPLS | GP_HC
1.30 | 6 of 6 | KLSQSVLYEVRNKNSVA | WASTRES | QTYHRMPLS | Ctrl
0.19 | 6 of 6 | KSSQSVDNEMRNKNSVA | DASTRES | QQYHRLPLS | GP_HC
1.80 | 6 of 6 | KMTTNLGHQANRKNSIA | EVDMVAC | QQYMRLPLI | En_Gibbs
0.23 | 6 of 6 | KISQSVLYESRNKNAVA | NASQRES | QQYHRLPLS | GP_Gen
0.71 | 6 of 6 | KSSQSVLYESLNKNSVA | SASTRES | QQYCRLPLS | Ctrl
-0.82 | 6 of 6 | KVSQSWLYESRNKNSVA | NASYRES | QQYHRLPLS | GP_Gen
0.22 | 6 of 6 | KVSMSVLYESRVKNSVA | NASQRES | QQYHRLPLI | GP_Gibbs
1.64 | 1 of 6 | KFLQQLWYESRNHNSVA | WASTRES | QQYHRLPLS | Ctrl
0.38 | 6 of 6 | KFSQGVLDESTNKNSVA | RASTRES | QQYHRLPLS | Ctrl
0.35 | 6 of 6 | KLSITGLHQSIDKKSIA | ERSTREN | QQYHRLPLS | En_HC
not detected | 0 of 6 | IVSQLMLWGMHIKNSIA | EAQTRLN | QQYDRLPLF | En_Gen
not detected | 0 of 6 | KLSQSVLYERRNKNSIW | SASTRES | MVYHRLPLS | Ctrl
0.34 | 6 of 6 | KLSPSELYESRNKNSVA | EASTRES | QQYHRLPLS | GP_Gen
1.25 | 6 of 6 | QVFFNLFEQGKRSQPIA | GTSMRET | QQYARLPLI | En_Gibbs
1.28 | 6 of 6 | KVDMGELPNGFNRSHVA | QAEVRAP | QQYWRLPLE | En_Gibbs
2.36 | 3 of 6 | NFSQMVSTGMTLRNSVA | HASTRFN | QQYHRLPLM | En_HC
-0.07 | 6 of 6 | KVSISFLLESRNKNSVA | EASTRES | QQYHRLPLS | GP_HC
0.44 | 6 of 6 | VLQQLGLYEPRNKNSVA | SASTRLP | QQYHRLPLS | GP_Gibbs
0.49 | 6 of 6 | KLSMVTGHMSMSRNNVA | EMVTREP | QQYDRLPLS | En_Gen
1.73 | 2 of 6 | KSSQSVSYESFNKNSVA | WASTRES | QQYHRLPLL | Ctrl
-0.20 | 6 of 6 | KLSQSVLYESRMKNSVA | NASQRMS | QQYHRLPLS | GP_Gen
0.22 | 6 of 6 | KLMQGVDMESRNKNSVA | NASMRLD | QQYHRLPLS | GP_Gibbs
0.65 | 6 of 6 | SISMSMAFLSRNKNSVA | ENSTRES | QQYHRLPLM | En_HC
1.72 | 6 of 6 | KSSQSVLYESRNKNSVA | WGSTRES | QQYIRLPLS | Ctrl
0.34 | 6 of 6 | HSSPSYLYESRNGNSVA | NASTRES | QQYHRLPLS | GP_HC
not detected | 0 of 6 | KLSQSVLYEWRNKNSVA | WASTRES | QQPHRLPLS | Ctrl
-0.14 | 6 of 6 | KVSQSFLYESRNVNSVA | GASTRDS | QQYHRLPLS | GP_HC
2.20 | 5 of 6 | KLEQSTLYESRNKNSVA | NASTRES | QQYKRLPLS | GP_Gibbs
1.10 | 6 of 6 | KSSQSVLYESRNKNSVA | NASTRAS | QQYHRLPLS | Ctrl
1.40 | 6 of 6 | QITEEQSMRTQGNWNIA | QAEQKVH | QQYDRLPLA | En_Gibbs
0.66 | 6 of 6 | MISDLTMYGSRNKNSVA | DLSTRGR | QQYHRLPLS | En_HC
-0.13 | 6 of 6 | KLSYSFMMLSRNDNSVA | DASTRES | QQYHRLPLS | GP_Gibbs
-0.04 | 6 of 6 | HLSDTVMQGSLYRNSVA | QESTRAD | QQYHRLPLS | En_HC
not detected | 0 of 6 | IVSQLMLWGMHHKNSIA | EAQTRIN | QQYERLPLF | En_Gen
0.62 | 6 of 6 | KSAQSVLHESRNINSVA | GASTRES | QQYHRLPLS | Ctrl
2.16 | 2 of 6 | MLGETYEGEKRQRNSVA | HNSMRAN | QQYDRLPLA | En_Gen
0.58 | 6 of 6 | IFSQTVMYESTMRNNVA | QTSTRES | QQYDRLPLS | En_HC
-0.06 | 6 of 6 | KQSQSVLYESRNKNAVA | DASTRES | QMYHRLPLS | GP_HC
-0.01 | 6 of 6 | QLDWYNTTATASANNVA | DVAQRVN | QQYMRLPLM | En_Gibbs
0.54 | 6 of 6 | TISQITSSFSQNINNVA | EVSTRLN | QQYDRLPLS | En_Gen
0.81 | 6 of 6 | TLMQVGGYETNAHNSIA | DLRTRES | QQYHRLPLS | En_HC
0.57 | 6 of 6 | SFHEVNFEGLAQTANVA | NASYAFE | QQYFRLPLT | En_Gibbs
1.82 | 5 of 6 | KSSKSVLYESRNKNSLA | WAQTRES | QQYHRLPLS | Ctrl

The closing 4 entries, repeated:

CDR-L1,CDR-L2,CDR-L3,group,"mean, log10 nM",seen in
TISQITSSFSQNINNVA,EVSTRLN,QQYDRLPLS,En_Gen,0.54,6 of 6
TLMQVGGYETNAHNSIA,DLRTRES,QQYHRLPLS,En_HC,0.81,6 of 6
SFHEVNFEGLAQTANVA,NASYAFE,QQYFRLPLT,En_Gibbs,0.57,6 of 6
KSSKSVLYESRNKNSLA,WAQTRES,QQYHRLPLS,Ctrl,1.82,5 of 6

Values of this round are not directly comparable with the first-round values of the same sequences.
Of ten entries with the parent sequence, four were seen in most replicates (averages 0.34 to 2.37), three in one and three in none, so single entries are noisy.
The authors averaged sequences with at least three values out of six and counted those with two or fewer as poor binders.
Empty control strains, which show no peptide, gave a signal in 4% of pairings with all light chain designs; the median was 2.64 and 95% of these signals were weaker than 1.59. No background was subtracted.

From the AlphaSeq antibody data of Li et al. 2023 (doi:10.1038/s41467-023-39022-2), copy in the FLAb collection.